The entries are a selection whose mix differs from that of the whole data set. Activity calls are given as the source filed them. No stated cut-off is given here; in the data, active means activity change below about -65%; inconclusive means mostly about -30% to -63%; inactive means weaker than that.
target: Homeobox protein SIX1 (Homo sapiens) + Protein phosphatase EYA2 (Homo sapiens) (UniProt Q15475+O00167); experiment: qHTS Assay for Inhibitors of the Six1/Eya2 Interaction; conditions: AlphaScreen GST-Six1/His-Eya2 binding, biochemical; hits give low values
Source text: Its expression is low or undetectable in normal adult breast tissue but the gene is over-expressed in 50% of primary breast tumors and 90% of metastatic lesions. […] Similar to Six1, Eya2 is also not expressed in most normal adult tissues, but is reexpressed in cancers. The Six1-Eya interaction is essential for proliferation during embryonic development, and both Six1 and Eya2 have been independently implicated in the same types of cancer. Because Six1 and Eya2 are embryonic genes with little expression in adult tissues, inhibitors of their expression/activity are likely to have limited side effects. Our goal is to identify inhibitors of the Six1/Eya interaction for potential cancer therapy. To this end, we have developed a homogenous AlphaScreen assay targeting the Six1/Eya interaction. We performed a large scale HTS of the Molecular Libraries Small Molecule Repository (MLSMR) to identify inhibitors of the Six1/Eya interaction as potential anti-cancer therapeutics. Compounds identified can also be used as chemical probes to better understand the biological functions of Six1 and Eya. NIH Chemical Genomics Center [NCGC] NIH Molecular Libraries Probe Centers Network [MLPCN] MLPCN Grant: DA033147 Assay Submitter (PI): Rui Zhao, University of Colorado Denver
The first step of the 5 uL AlphaScreen assay is to dispense assay buffer (50 mM Tris, pH 8.0, 300 mM NaCl, 0.05% BSA, 0.02% Tween 20, 1 mM TCEP) into a Greiner 1536 white solid bottom microtiter plate (789175-F). Five microliters is added to Column 1, 4 uL is added to Column 2 and 3 uL is added to Columns 3 through 48. A 5X protein solution (250 nM GST-Six1 protein + 500 nM His-tagged Eya2 protein) is mixed and 1 uL is dispensed to Columns 3-48. Using a 1536 pintool, 23 nL of compound is transferred to the assay plate. A solution of 5X AlphaScreen beads is mixed (50 ug/mL Glutathione linked donor beads + Nickel chelated acceptor beads) and 1 uL is dispensed to Columns 2-48. The assay plate is incubated for one hour, with a lid, at 37 deg C in the dark. The plate is read using a Perkin Elmer Envision using an AlphaScreen protocol.
On the % scale 0 is the no-effect control and ±100 the full control effect.

Amino acid sequences for entries named in this document (tags omitted).
UniProt Q15475, whole entry: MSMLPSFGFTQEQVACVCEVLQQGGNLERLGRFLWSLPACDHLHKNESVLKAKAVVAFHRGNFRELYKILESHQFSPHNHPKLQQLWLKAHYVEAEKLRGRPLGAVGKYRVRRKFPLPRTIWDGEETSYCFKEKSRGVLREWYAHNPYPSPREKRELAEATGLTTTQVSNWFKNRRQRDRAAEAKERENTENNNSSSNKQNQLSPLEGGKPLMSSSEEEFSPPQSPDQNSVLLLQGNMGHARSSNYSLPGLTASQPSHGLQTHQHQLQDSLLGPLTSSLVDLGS

Row | SMILES | activity change
1 | Cc1c([N+](=O)[O-])cc([N+](=O)[O-])c(Br)c1[N+](=O)[O-] | inactive: 3.34%
2 | COC(=O)c1cc2c(s1)N=C(c1ccccc1)N(C)P2(=O)N1CCOCC1 (stereo not given) | inactive: 1.48%
3 | CCN(CC)CCCOC(=O)C(O)(c1ccccc1)C1CCCCC1 (stereo not given) | inactive: 0.171%
4 | CCC(=O)N1C2C3N(C(=O)CC)C1C1N(C(=O)CC)C(C(N1C(=O)CC)N3C(=O)CC)N2C(=O)CC | inactive: -3.06%
5 | O=C(OC1CN2CCC1CC2)c1ccccc1 (stereo not given) | inactive: -15.6%
6 | CP(=O)(Nc1ccccc1)Oc1ccc(F)cc1 (stereo not given) | inactive: 0.168%
7 | CCCCCOc1ccc(NP(C)(=O)Oc2ccc(Cl)cc2Cl)cc1 (stereo not given) | inactive: -14.4%
8 | O=c1c2cc([N+](=O)[O-])ccc2[nH]c2c([N+](=O)[O-])cc([N+](=O)[O-])cc12 | inactive: 0.242%
9 | CN(C)C(=O)Oc1noc2ccccc12 | inactive: 8.8%
10 | CC(NC(=O)COC(=O)C(O)(c1ccccc1)c1ccccc1)c1ccccc1 (stereo not given) | inactive: 0.262%
11 | Cc1ccccc1OP(=O)(Nc1ccccn1)Oc1ccccc1C | inactive: -24.7%
12 | CCCC1OP(N)(=O)OCC1CC (stereo not given) | inactive: 4.16%
13 | CC(=O)Nc1ccc([As](=O)(O)O)cc1 | inactive: -6.65%
14 | O=C(O)c1ccccc1[As](=O)(O)O | inactive: 0.27%
15 | O=P(Nc1nc2ccc(Cl)cc2s1)(c1ccccc1)c1ccccc1 | inactive: 0.513%
16 | Cc1cc(C)cc(OP(C)(=O)Nc2cccc(C(F)(F)F)c2)c1 (stereo not given) | inactive: -0.751%
17 | CN(C)P(=O)(N(C)C)n1c(Nc2ccccc2)nnc1-c1ccccc1 | inactive: -0.84%
18 | COc1ccccc1OP(C)(=O)Nc1ccc(C)c(C)c1 (stereo not given) | inactive: 5.11%
19 | Cc1ccc(NP(=O)(Oc2ccccc2F)Oc2ccccc2F)nc1 | inactive: 1.84%
20 | CN(C(=O)Cc1ccc(Cl)c(Cl)c1)[C@H]1CCCC[C@@H]1N1CCCC1 | inactive: -3.82%
21 | Cc1cc(SC(NC(=O)c2ccc(F)cc2)C(Cl)(Cl)Cl)ncn1 (stereo not given) | inactive: 13.7%
22 | CCOP(=O)(Nc1ccccc1)OCC | inactive: -3.61%
23 | COc1ccc(OP(C)(=O)Nc2ccccc2Br)cc1 (stereo not given) | inactive: 1.53%
24 | CCN(N=Nc1nonc1N)c1nonc1N | inactive: 11.4%
25 | CP(=O)(Nc1ccc(Cl)cc1Cl)Oc1ccccc1 (stereo not given) | inactive: 0.81%

Row | SMILES | activity change
26 | CCCCCCCCCCCCCCCC1C[N+](C)(C)CCOP(C)(=O)O1 (stereo not given) | inactive: 11.6%
27 | CP(=O)(OCCOc1ccccc1)OCCOc1ccccc1 | inactive: 0.203%
28 | Nc1cccc2ccc([As](=O)(O)O)cc12 | inactive: -4.73%
29 | NC(=O)c1cc([N+](=O)[O-])cc([N+](=O)[O-])c1N | inactive: 1.66%
30 | Cc1ccc(N/C(=N/P(=O)(N2CCOCC2)N2CCOCC2)N2CCOCC2)cc1 | inactive: 32.7%
31 | CN(C(=O)Cc1ccc(Cl)c(Cl)c1)[C@H]1CCCC[C@H]1N1CCCC1 | inactive: 5.52%
32 | COc1ccccc1OP(C)(=O)Nc1ccc(Br)cc1 (stereo not given) | inactive: -0.477%
33 | Cc1ccc(OP(=O)(Nc2nccs2)Oc2ccc(C)cc2)cc1 | inactive: 0.972%
34 | COc1ccccc1OP(=O)(Nc1ccc(C)cn1)Oc1ccccc1OC | inactive: 5.18%
35 | COc1ccc(OP(C)(=O)Nc2ccccn2)cc1 (stereo not given) | inactive: 14.9%
36 | CN1CCCC(OC(=O)C(c2ccccc2)c2ccccc2)C1 (stereo not given) | inactive: -24.5%
37 | Clc1ccc(Cl)c(NC2=NCC(CBr)S2)c1 (stereo not given) | inactive: 4.71%
38 | CN(C)CCOC(=O)C(O)(c1ccccc1)C1CCCC1 (stereo not given) | inactive: 2.68%
39 | Cc1c(NP(C)(=O)Oc2ccc(C(C)C)cc2)c(=O)n(-c2ccccc2)n1C (stereo not given) | inactive: -0.405%
40 | Nc1cc(N)c2nonc2c1[N+](=O)[O-] | inactive: -22.2%
41 | CC(C)CC(=O)NC(Sc1ccc(Cl)cc1)C(Cl)(Cl)Cl (stereo not given) | inactive: 10.4%
42 | O=[N+]([O-])c1cc([N+](=O)[O-])c(Nc2ccccn2)c([N+](=O)[O-])c1 | inactive: -11.5%
43 | O=C(NC(Sc1ccncn1)C(Cl)(Cl)Cl)c1ccccc1 (stereo not given) | inactive: 5.91%
44 | Oc1ccccc1CNc1ccccn1 | inactive: 2.51%
45 | COc1ccccc1OP(C)(=O)Nc1ccc(C)cc1C (stereo not given) | inactive: 5.32%
46 | CP(=O)(Nc1ccccn1)Oc1ccccc1 (stereo not given) | inactive: 8.75%
47 | CCc1ccc(OP(C)(=O)O)cc1 | inactive: 3.08%
48 | O=[N+]([O-])C1C(O)C(O)C([N+](=O)[O-])C(O)C1O (stereo not given) | inactive: -2.54%
49 | COc1ccc(C2=NCC(CBr)S2)cc1 (stereo not given) | inactive: 1.61%
50 | COc1ccc(OP(C)(=O)Nc2ccc(Br)cc2)cc1 (stereo not given) | inactive: 1.26%

Reference: PubChem BioAssay AID651725 (National Center for Advancing Translational Sciences (NCATS), 2012)
